Results from PMC4126848 (Epilepsia, 2014).
Where two headings read alike, the source gives them in different places.

Protein sequences, listed by entry. Tags and fused reporters are not part of them.
UniProt P04775, whole entry G879Q/A880Q/L881Q: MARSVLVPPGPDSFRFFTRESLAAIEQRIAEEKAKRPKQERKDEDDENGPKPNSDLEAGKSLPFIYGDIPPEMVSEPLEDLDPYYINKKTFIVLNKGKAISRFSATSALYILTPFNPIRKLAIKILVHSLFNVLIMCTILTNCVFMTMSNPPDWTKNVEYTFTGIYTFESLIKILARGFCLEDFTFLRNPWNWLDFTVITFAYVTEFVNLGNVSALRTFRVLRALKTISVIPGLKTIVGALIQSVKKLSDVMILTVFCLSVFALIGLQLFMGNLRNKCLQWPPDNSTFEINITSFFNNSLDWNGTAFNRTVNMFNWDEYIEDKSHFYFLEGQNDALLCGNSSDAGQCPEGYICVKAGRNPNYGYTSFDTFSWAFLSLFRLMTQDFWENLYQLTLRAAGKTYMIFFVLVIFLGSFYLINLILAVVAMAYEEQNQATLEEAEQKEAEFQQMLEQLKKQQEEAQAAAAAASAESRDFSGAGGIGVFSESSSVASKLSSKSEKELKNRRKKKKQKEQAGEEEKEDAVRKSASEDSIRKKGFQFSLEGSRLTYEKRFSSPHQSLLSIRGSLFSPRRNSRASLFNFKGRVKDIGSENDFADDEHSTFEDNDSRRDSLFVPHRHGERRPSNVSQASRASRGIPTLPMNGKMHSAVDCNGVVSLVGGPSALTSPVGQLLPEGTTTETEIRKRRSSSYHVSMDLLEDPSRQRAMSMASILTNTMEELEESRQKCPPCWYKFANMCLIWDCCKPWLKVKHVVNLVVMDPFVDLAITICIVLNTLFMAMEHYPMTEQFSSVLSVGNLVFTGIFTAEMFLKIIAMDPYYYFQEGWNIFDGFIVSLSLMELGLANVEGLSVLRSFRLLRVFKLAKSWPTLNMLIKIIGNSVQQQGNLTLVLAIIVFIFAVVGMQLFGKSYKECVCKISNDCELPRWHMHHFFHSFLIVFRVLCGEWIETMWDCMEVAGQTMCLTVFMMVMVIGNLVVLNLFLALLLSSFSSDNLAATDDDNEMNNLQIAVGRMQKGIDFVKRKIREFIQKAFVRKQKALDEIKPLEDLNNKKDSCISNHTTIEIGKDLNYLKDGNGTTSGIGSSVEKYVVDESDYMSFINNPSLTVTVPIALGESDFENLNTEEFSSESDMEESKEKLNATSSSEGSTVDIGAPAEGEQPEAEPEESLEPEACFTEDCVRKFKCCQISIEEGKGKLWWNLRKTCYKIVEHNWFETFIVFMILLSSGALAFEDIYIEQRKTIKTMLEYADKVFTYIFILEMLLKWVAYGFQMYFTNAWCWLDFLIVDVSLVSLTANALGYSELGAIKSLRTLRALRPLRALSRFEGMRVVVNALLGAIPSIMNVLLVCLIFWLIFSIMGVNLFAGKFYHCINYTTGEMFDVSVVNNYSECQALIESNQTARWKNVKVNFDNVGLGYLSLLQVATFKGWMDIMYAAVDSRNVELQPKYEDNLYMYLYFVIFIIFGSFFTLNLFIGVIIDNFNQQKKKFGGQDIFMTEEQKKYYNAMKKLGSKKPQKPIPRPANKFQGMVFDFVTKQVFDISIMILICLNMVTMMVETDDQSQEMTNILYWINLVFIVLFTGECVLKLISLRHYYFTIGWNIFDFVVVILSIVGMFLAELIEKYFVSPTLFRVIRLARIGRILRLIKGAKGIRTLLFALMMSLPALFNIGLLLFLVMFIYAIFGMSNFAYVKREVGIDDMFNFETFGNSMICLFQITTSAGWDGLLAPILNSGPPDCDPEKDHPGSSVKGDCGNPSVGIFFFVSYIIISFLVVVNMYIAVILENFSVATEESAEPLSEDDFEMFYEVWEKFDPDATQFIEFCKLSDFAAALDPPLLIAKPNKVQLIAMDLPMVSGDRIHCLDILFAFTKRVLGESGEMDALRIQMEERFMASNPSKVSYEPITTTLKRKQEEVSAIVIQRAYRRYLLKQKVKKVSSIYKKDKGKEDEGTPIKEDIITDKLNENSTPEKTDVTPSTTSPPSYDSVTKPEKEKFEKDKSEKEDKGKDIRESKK

Target: rat NaV1.2-GAL879-881QQQ (Rattus norvegicus, UniProt P04775, A880Q/G879Q/L881Q)
Assay: Whole-cell voltage clamp of tsA201 cells expressing mutant NaV1.2
Settings: for preference for persistent current block over peak current block: ratio of IC50 values; for inhibition at 10 µM: tsA201, read-out: steady-state use-dependent inhibition of transient sodium current, 10 µM phenytoin

FC(F)(F)Oc1ccc(-c2ccc3nnc(C(F)(F)F)n3c2)cc1 [GS967]
effect on voltage dependence of activation and steady-state inactivation (1 µM): small hyperpolarized shifts
steady-state use-dependent inhibition of transient sodium current (1 µM GS967, 10 – 100 Hz): minimal steady-state use-dependent inhibition
preference for persistent current block over peak current block: 42 fold

O=C1NC(=O)C(c2ccccc2)(c2ccccc2)N1 [Phenytoin, reference compound]
preference for persistent current block over peak current block: 9 fold
inhibition at 10 µM (high stimulation frequencies): 44.2 ± 3.7%
inhibition at 10 µM (low frequency stimulation): 22.6 ± 2.8%
